Experiment [1] has as its target Human neutrophil elastase (Homo sapiens (Human), UniProt P08246). The experiment is described as follows: Human Neutrophil Elastase Assay. The conditions noted are these: substrate MeOSuc-Ala-Ala-Pro-Val-AMC 250 μM, pH 7.5.
The target in experiment [2] is neutrophil elastase in human plasma (Homo sapiens (Human), UniProt P08246). The experiment is described as follows: Neutrophil elastase inhibitory activity in human plasma (zymosan-stimulated blood). The experiment is classed as biochemical.
Setting [3] is: neutrophil elastase enriched human plasma from zymosan-stimulated blood, read-out: EC50.

By UniProt entry, the sequences of proteins in these tests, tags left out. Residues count along the entry.
UniProt P08246, 30-247: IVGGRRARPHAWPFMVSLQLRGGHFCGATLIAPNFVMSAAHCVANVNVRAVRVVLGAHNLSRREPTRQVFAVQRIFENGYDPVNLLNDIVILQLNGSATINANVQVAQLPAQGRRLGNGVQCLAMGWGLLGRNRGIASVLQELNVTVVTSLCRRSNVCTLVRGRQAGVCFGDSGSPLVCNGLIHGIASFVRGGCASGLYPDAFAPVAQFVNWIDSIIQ

Like-named read-outs stand apart in the source and are kept apart here.

Regarding `CNC(=O)N1C(=O)N(c2cccc(C(F)(F)F)c2)C2=C(C(=O)CC2)[C@H]1c1ccc(C#N)cc1` [Example 7.1A, (R)-4-(4-Cyanophenyl)-N-methyl-2,5-dioxo-1-(3-(trifluoromethyl)phenyl)-4,5,6,7-tetrahydro-1H-cyclopenta[d]pyrimidine-3(2H)-carboxamide], the concentration for half-maximal inhibition (IC50) in experiment [1] (human neutrophil elastase) was less than 1 nM. For the same compound, in experiment [2] (setting [3]), the EC50 came out at 2 nM.

As to `CNC(=O)N1C(=O)N(c2cccc(C(F)(F)F)c2)C2=C(C(=O)CC2)[C@@H]1c1ccc(C#N)cc1`, the IC50 in experiment [1] (human neutrophil elastase) came to 622 nM.

With `N#Cc1ccc([C@@H]2C3=C(CCC3=O)N(c3cccc(C(F)(F)F)c3)C(=O)N2C(=O)NCCO)cc1` [Example 7.2A, (R)-4-(4-Cyanophenyl)-N-(2-hydroxyethyl)-2,5-dioxo-1-(3-(trifluoromethyl)phenyl)-4,5,6,7-tetrahydro-1H-cyclopenta[d]pyrimidine-3(2H)-carboxamide], the 50% inhibitory concentration (IC50) in experiment [1] (human neutrophil elastase) is less than 1 nM. Also, the EC50 in experiment [2] (setting [3]) came out at 1 nM.

Compound `N#Cc1ccc([C@H]2C3=C(CCC3=O)N(c3cccc(C(F)(F)F)c3)C(=O)N2C(=O)NCCO)cc1` [Example 7.2B, (S)-4-(4-Cyanophenyl)-N-(2-hydroxyethyl)-2,5-dioxo-1-(3-(trifluoromethyl)phenyl)-4,5,6,7-tetrahydro-1H-cyclopenta[d]pyrimidine-3(2H)-carboxamide] showed a concentration for half-maximal inhibition (IC50) in experiment [1] (human neutrophil elastase) of 550 nM.

Consider `CN1C(=O)N(c2ccnc(C(F)(F)F)c2)C2=C(C(=O)CC2)C1c1ccc(C#N)cc1S(C)(=O)=O` (stereo not drawn) [Example 29, 4-(3-Methyl-2,5-dioxo-1-(2-(trifluoromethyl)pyridin-4-yl)-2,3,4,5,6,7-hexahydro-1H-cyclopenta[d]pyrimidin-4-yl)-3-(methylsulfonyl)benzonitrile], for which, in experiment [1] (IC50, human neutrophil elastase), the IC50 is 4.2 nM. A half-maximal response in experiment [2] (EC50, neutrophil elastase enriched human plasma from zymosan-stimulated blood) (EC50) required 1 nM.

In turn, `CN1C(=O)N(c2cccc(C(F)(F)F)c2)C2=C(C(=O)CC2)C1c1ccc(C#N)cc1` (stereo not drawn) [Example 2, 4-(3-Methyl-2,5-dioxo-1-(3-(trifluoromethyl)phenyl)-2,3,4,5,6,7-hexahydro-1H-cyclopenta[d]pyrimidin-4-yl)benzonitrile] gave an IC50 in experiment [1] (human neutrophil elastase) of 6.4 nM.

What is called IC50 is the concentration that gives 50% inhibition. A word on the EC50: it is the concentration that produces a half-maximal response.

Source of the values: patent US9290459B1, “Substituted bicyclic dihydropyrimidinones and their use as inhibitors of neutrophil elastase activity” (Boehringer Ingelheim International GmbH, priority 2013, dated 2016).
